Literature values, collected in patent US11679984B2, “Composite sols” (Prebona AB, priority 2016, dated 2023).

Settings: 20° C.; cited from earlier work

In the case of Co(OH)2, the Aqueous solubility is given as 34 µM.
